System: NCI-N87 xenografts relapsed from T-DM1
Conditions: Step II Day 22; 10 mg/kg/day iv Day 1
Description: Male nude mice (BALB/cAJ1-mu/mu) were implanted with NCI-N87 human gastric carcinoma (HER2 overexpressing); 1.0×10^7 cells in 100 μL of PBS were implanted subcutaneously per mouse.
The tumor volumes (TV, mm^3) and body weights of the mice were recorded.

trastuzumab emtansine [T-DM1]
Number of Death: 0
